{"source": "patent US20260183363A1", "about": "“INHIBITION OF LUTEINIZING HORMONE (LH) ACTION AS TREATMENT OF PERIMENOPAUSAL AND POSTMENOPAUSAL SYMPTOMS AND COMPLICATIONS” (RIGSHOSPITALET, priority 2022, published 2026)", "key": {"[1]": {"system": "male wild type mice (C57BL/6)", "assay": "Mice treated with LH, cinacalcet or hCG for 10 days", "type": "in vivo", "procedure": "Eight weeks old male wild type mice (C57BL/6), caged at Biotest Facility, Trige, Denmark, were treated for 10 days with either: • vehicle (n=12; NaCl 0.9%×1 daily s.c.); • Cinacalcet (n=8; 30 mg/kg, ×1 daily), (Cinacalcet is in a class of medications called calcimimetics which works by signaling the body to produce less parathyroid hormone (PTH) in order to decrease the amount of calcium in the blood); • LH (n=8; 66.7 IU/kg×1 daily s.c.); • LH in combination with Cinacalcet (n=8; 66.7 IU/kg×1 daily s.c+cinacalcet orally 30 mg/kg once daily); or • hCG (n=8; 666.7 IU/kg, every other day, i.p.).\nAt termination, blood and urine sampling was performed, animals were sacrificed and body weight was assessed. Serum PTH was measured using commercially available ELISA kit Mouse PTH 1-84 from Immutopics. Plasma and urinary calcium and creatinine was measured using Stanbio LiquiColor (Arzenazo III) product numbers 0155 and 0430, respectively. All analyses of mice serum, urine, and organ weight were analyzed with ANOVA with control/baseline as reference value. Each p-value presented was adjusted for multiple comparisons with Dunnett's post hoc test."}, "human kidney tissue": {"system": "human kidney tissue", "assay": "Ex vivo culture of human kidney tissue, qRT-PCR gene expression", "type": "cell-based", "settings": "3 or 24 hours culture", "procedure": "Human kidney tissues from 5 adults (4 men, 1 […]) were cultured. All donors underwent partial nephrectomy due to suspected malignant kidney tumors and a pathologist removed tissues outside the malignant area. Kidney specimens were dissected in small pieces 1 mm^3 and cultured for either 3 or 24 hours in a hanging drop ex vivo model. Tissues were treated with either vehicle (media containing DMEM, insulin-transferrin-selenium, penicillin, streptomycin and 10% fetal bovine serum) or media also containing one of the following: PTH (0.01 pg/mL), LH (1 IU/mL), hCG (1 IU/mL), estradiol (1 nmol/L) or testosterone (50 nmol/L) and subsequently stored at −80° C. for subsequent RNA purification and cDNA synthesis.\nGene expression profiling was done by qRT-PCR analyzing levels of calcium transporters SLC12A-1, SLC12A-2, TRPV5 as well as calcium-sensing receptor (CASR). The inventors also measured kidney expression of exon 2-4 and 11 of LHCGR using a primer-sequence previously validated by sequencing of the product from both serum and testis tissue. As calcium transporters are differentially expressed in the different parts of the nephron, all samples were standardized according to the expression of Uromodulin (UMOD), a protein located in the thick ascending limb of the loop of Henle and subsequently to MAP3K7 expressed in the distal convoluted tubules and in addition to being standardized to the housekeeping gene, RPS20. Ethical committee approval: H-17004362. All samples were analyzed with ANOVA with control/baseline as reference value and every p-value presented was adjusted for multiple comparisons with Dunnett's post hoc test."}, "TERT cells": {"system": "TERT cells", "assay": "UCP1 and DIO2 expression in adipocytes after LH or hCG", "type": "cell-based, human", "settings": "48 hours exposure, two doses, compared with vehicle", "procedure": "The human-derived adipocyte-cell-models used were: hMADS (from a subcutaneous depot), human Simpson-Golabi-Behmel syndrome (SGBS) preadipocyte cell strain, and TERT-hWA (from a subcutaneous neck depot). They were propagated and differentiated as briefly described here: All cells were cultured until two days post-confluence (designated day 0) where they were induced to differentiate in advanced DMEM/F12 supplemented with 2% fetal bovine serum (FBS) (Life Technologies), L-glutamine (2 mM) (Life Technologies), penicillin (62.5 μg/mL), streptomycin (100 μg/mL) Sigma-Aldrich), insulin (5 ug/mL) (Roche), examethasone (1 μM) (Sigma-Aldrich), 3-isobutyl-1-methylxanthine (0.5 mM) (Sigma-Aldrich), rosiglitazone (1 μM) (Cayman Chemical), human cortisol (1 μM) (Sigma-Aldrich) and T3 (1 nM) (Sigma-Aldrich). At day 3, the medium was refreshed with the same medium used at day 0. At day 6 and 9, the cells received Advanced DMEM/F12 supplemented with 2% FBS. At day 12, the adipocytes were defined as mature, and the percentage of differentiated cells was 50-70% based on microscopic inspection irrespective of cell model. RNA was extracted for cDNA synthesis from undifferentiated (designated day 0) and differentiated (day 12) cells and PCR was conducted using specific primers. All analyses were analyzed with student t-test or ANOVA using the corresponding control/baseline as reference value. Every p-value presented was adjusted for multiple comparisons with Dunnett's post hoc test."}, "[2]": {"system": "male wild type mice (C57BL/6)", "assay": "Brown fat mass in mice treated with LH or hCG for 10 days", "type": "in vivo", "settings": "high and repeated dosing", "procedure": "Eight weeks old male wild type mice (C57BL/6) caged at Biotest Facility, Trige, Denmark, were treated for 10 days with either vehicle (n=12; NaCl 0.9%×1 daily s.c.), LH (n=8; 66.7 IU/kg×1 daily s.c.), or hCG (n=8; 666.7 IU/kg, every other day, i.p.). At termination, blood and fat sampling was performed, animals were sacrificed and body weight was assessed. Danish Animal Experiments Inspectorate License no. 2019-15-0201-00236. All analyses of mice serum, urine, and organ weight were analyzed with ANOVA with control/baseline as reference value and every p-value presented was adjusted for multiple comparisons with Dunnett's post hoc test."}, "white adipocytes": {"system": "white adipocytes", "assay": "RNA seq of white adipocytes exposed to LH", "type": "cell-based, human", "description": "(§1) The human-derived adipocyte-cell-models used were: hBa (from a subcutaneous depot), human Simpson-Golabi-Behmel syndrome (SGBS) preadipocyte cell strain, and TERT-hWA (from a subcutaneous neck depot). They were propagated and differentiated as described in Example 5.\n(§2) Brown adipocytes were exposed to different dosages of LH and hCG with and without sex steroids in the media and compared with the vehicle samples. RNA was extracted for cDNA synthesis and RNA seq (core facility and Bioinformatics assistance from CPH University) was performed supported by PCR using specific primers. All analyses were analyzed with t-test or ANOVA using the corresponding control/baseline as reference value and every p-value presented was adjusted for multiple comparisons with Dunnett's post hoc test."}, "brown adipocytes": {"system": "brown adipocytes", "assay": "RNA seq of brown adipocytes exposed to LH", "type": "cell-based, human", "description": "as §1, §2"}}}
{"substance": "LH: Luteinizing hormone, heterodimeric glycoprotein hormone produced by gonadotropic cells in the anterior pituitary gland; LHCGR agonist", "values": [{"measurement": "Bodyweight compared with vehicle-treated mice", "setting": "[1]; 10 days", "result": "borderline higher"}, {"measurement": "Urinary creatinine", "setting": "[1]; 10 days", "result": "neither LH+cinacalcet-treated nor LH-treated mice were affected"}, {"measurement": "kidney size compared with vehicle", "setting": "[1]; 10 days, before and after adjusting for body weight", "result": "significantly lower kidney size"}, {"measurement": "serum PTH levels", "setting": "[1]; 10 days, vehicle 1.0", "result": 9.2, "unit": "pmol/L"}, {"measurement": "urinary calcium excretion", "setting": "[1]; after 10 days of treatment, vehicle 0.54", "result": 0.98, "unit": "mmol/L"}, {"measurement": "expression levels of CASR and calcium transporters SLC12A-1, SLC12A-2, SLC12A-3", "setting": "human kidney tissue", "result": "no transcriptional changes"}, {"measurement": "DIO2 expression", "setting": "TERT cells", "result": "downregulated"}, {"measurement": "UCP1 expression", "setting": "TERT cells", "result": "downregulated"}, {"measurement": "brown fat mass", "setting": "[2]", "result": "reduced brown fat mass significantly"}, {"measurement": "Aerobic electron transport chain: Direction", "setting": "white adipocytes; LH vs vehicle", "result": "Down"}, {"measurement": "Aerobic electron transport chain: Number of genes", "setting": "white adipocytes; LH vs vehicle", "result": 172}, {"measurement": "Aerobic respiration: Direction", "setting": "white adipocytes; LH vs vehicle", "result": "Down"}, {"measurement": "Aerobic respiration: Number of genes", "setting": "white adipocytes; LH vs vehicle", "result": 172}, {"measurement": "Fatty acid beta-oxidation: Direction", "setting": "white adipocytes; LH vs vehicle", "result": "Down"}, {"measurement": "Fatty acid beta-oxidation: Number of genes", "setting": "white adipocytes; LH vs vehicle", "result": 73}, {"measurement": "Fatty acid catabolic process: Direction", "setting": "white adipocytes; LH vs vehicle", "result": "Down"}, {"measurement": "Fatty acid catabolic process: Number of genes", "setting": "white adipocytes; LH vs vehicle", "result": 97}, {"measurement": "Fatty acid oxidation: Direction", "setting": "white adipocytes; LH vs vehicle", "result": "Down"}, {"measurement": "Fatty acid oxidation: Number of genes", "setting": "white adipocytes; LH vs vehicle", "result": 95}, {"measurement": "Lipid oxidation: Direction", "setting": "white adipocytes; LH vs vehicle", "result": "Down"}, {"measurement": "Lipid oxidation: Number of genes", "setting": "white adipocytes; LH vs vehicle", "result": 97}, {"measurement": "Mitochondrial ATP synthesis coupled electron transport: Direction", "setting": "white adipocytes; LH vs vehicle", "result": "Down"}, {"measurement": "Mitochondrial ATP synthesis coupled electron transport: Number of genes", "setting": "white adipocytes; LH vs vehicle", "result": 85}, {"measurement": "Mitochondrial electron transport, NADH to ubiquinone: Direction", "setting": "white adipocytes; LH vs vehicle", "result": "Down"}, {"measurement": "Mitochondrial electron transport, NADH to ubiquinone: Number of genes", "setting": "white adipocytes; LH vs vehicle", "result": 49}, {"measurement": "Mitochondrial respiratory chain complex assembly: Direction", "setting": "white adipocytes; LH vs vehicle", "result": "Down"}, {"measurement": "Mitochondrial respiratory chain complex assembly: Number of genes", "setting": "white adipocytes; LH vs vehicle", "result": 94}, {"measurement": "Oxidative phosphorylation: Direction", "setting": "white adipocytes; LH vs vehicle", "result": "Down"}, {"measurement": "Oxidative phosphorylation: Number of genes", "setting": "white adipocytes; LH vs vehicle", "result": 127}, {"measurement": "Positive regulation of cold-induced thermogenesis: Direction", "setting": "white adipocytes; LH vs vehicle", "result": "Down"}, {"measurement": "Positive regulation of cold-induced thermogenesis: Number of genes", "setting": "white adipocytes; LH vs vehicle", "result": 78}, {"measurement": "Positive regulation of fatty acid transport: Direction", "setting": "white adipocytes; LH vs vehicle", "result": "Up"}, {"measurement": "Positive regulation of fatty acid transport: Number of genes", "setting": "white adipocytes; LH vs vehicle", "result": 18}, {"measurement": "Prostaglandin secretion: Direction", "setting": "white adipocytes; LH vs vehicle", "result": "Up"}, {"measurement": "Prostaglandin secretion: Number of genes", "setting": "white adipocytes; LH vs vehicle", "result": 13}, {"measurement": "Regulation of prostaglandin secretion: Direction", "setting": "white adipocytes; LH vs vehicle", "result": "Up"}, {"measurement": "Regulation of prostaglandin secretion: Number of genes", "setting": "white adipocytes; LH vs vehicle", "result": 11}, {"measurement": "Respiratory electron transport chain: Direction", "setting": "white adipocytes; LH vs vehicle", "result": "Down"}, {"measurement": "Respiratory electron transport chain: Number of genes", "setting": "white adipocytes; LH vs vehicle", "result": 105}, {"measurement": "Thyroid hormone metabolic process: Direction", "setting": "white adipocytes; LH vs vehicle", "result": "Up"}, {"measurement": "Thyroid hormone metabolic process: Number of genes", "setting": "white adipocytes; LH vs vehicle", "result": 16}, {"measurement": "genes directly influenced", "setting": "white adipocytes; white and brown cells", "result": "more than 400 genes"}, {"measurement": "cold-induced thermogenesis", "setting": "white adipocytes; white fat cells exposed to high LH", "result": "suppressed"}, {"measurement": "Positive regulation of fatty acid transport: Direction", "setting": "brown adipocytes; LH vs vehicle", "result": "Up"}, {"measurement": "Positive regulation of fatty acid transport: Number of genes", "setting": "brown adipocytes; LH vs vehicle", "result": 18}, {"measurement": "Response to cold: Direction", "setting": "brown adipocytes; LH vs vehicle", "result": "Down"}, {"measurement": "Response to cold: Number of genes", "setting": "brown adipocytes; LH vs vehicle", "result": 44}, {"measurement": "Response to fatty acid: Direction", "setting": "brown adipocytes; LH vs vehicle", "result": "Down"}, {"measurement": "Response to fatty acid: Number of genes", "setting": "brown adipocytes; LH vs vehicle", "result": 51}, {"measurement": "cold-induced thermogenesis", "setting": "brown adipocytes; brown fat cells exposed to high LH", "result": "suppressed"}]}
